Laboratory results from ChEMBL document CHEMBL5696443 (Clin Cancer Res, 2016).

Sequences of proteins named here, by UniProt entry; tags and fusion partners are left off.
UniProt Q13882, whole entry: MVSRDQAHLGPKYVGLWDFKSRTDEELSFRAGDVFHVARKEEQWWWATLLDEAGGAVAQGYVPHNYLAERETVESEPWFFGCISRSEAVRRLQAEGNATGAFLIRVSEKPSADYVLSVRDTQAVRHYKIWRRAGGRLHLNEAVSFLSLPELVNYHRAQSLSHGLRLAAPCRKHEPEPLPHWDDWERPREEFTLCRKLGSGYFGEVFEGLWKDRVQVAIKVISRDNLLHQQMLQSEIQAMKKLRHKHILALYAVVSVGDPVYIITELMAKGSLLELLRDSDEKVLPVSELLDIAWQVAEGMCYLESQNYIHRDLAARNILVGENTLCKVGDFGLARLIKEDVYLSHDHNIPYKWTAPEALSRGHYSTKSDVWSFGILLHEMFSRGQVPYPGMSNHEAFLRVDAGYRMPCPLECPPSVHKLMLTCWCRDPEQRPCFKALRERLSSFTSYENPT

Biological target: Protein-tyrosine kinase 6 (Homo sapiens, UniProt Q13882)
Experiment: Inhibition of human PTK6 using poly (Glu, Tyr)4:1 as substrate in presence of [gamma33P]-ATP by HotSpot assay

SMILES: COc1cc(N2CCC(N3CCN(C)CC3)CC2)ccc1Nc1ncc(Cl)c(Nc2ccccc2P(C)(C)=O)n1 [BRIGATINIB]
- IC50: 4.1 nM
